From publication PMC10981688, “PCSK9 stimulates Syk, PKCδ, and NF-κB, leading to atherosclerosis progression independently of LDL receptor” (Nature Communications, 2024) come the findings set out here.

The target of the assay is recombinant human LOX1 (lectin-type oxidized LDL receptor 1) (human). The assay can be described thus: BLI; BLItz system; PCSK9-His (hPCSK9, 500 nM, 120 s loading) immobilised on an anti-Penta-HIS sensor; association 120 s, dissociation 120 s; sensorgrams fit globally to a 1:1 binding model. As to conditions: both partners purified. (In general: In BLI a coated tip is dipped into the sample, and binding shifts an interference pattern.)

B1: recombinant human PCSK9 with 6x His tag (proprotein convertase subtilisin/kexin type-9) (natural protein)
chain: not shown
notes: proprotein convertase subtilisin/kexin type-9 (PCSK9), human, recombinant; written here as one chain; also called rhPCSK9-His; PCSK9-His
Consider B1, for which the Kd (in general, a measure of binding affinity in units of concentration) was 2830 nM.
